# Compounds with a hit are over-represented: about 1.5% of the library has one in this group of screens.
# RAD54 inh = blocks human RAD54 Holliday junction branch migration. FAM/BHQ fluorescence. Q92698. inhibition, % at 10.4 µM. 360,000 compounds, 0.14% hits. AID 602329;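 active = mean normalized replicate activity at least 40 and at least half of replicates scoring 40 or more; inconclusive = only one of the two criteria met; inactive = mean below 40 and under half of replicates reaching 40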;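 also: 0% = median of neutral control wells and 100% = median of positive control wells; inhibitors cause a drop in the FAM fluorescence signal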
# RAD52 anneal inh = blocks human RAD52 DNA annealing; 360,000 compounds, 0.46% hits; inhibition, % at 18.7 µM; recombinant RAD52 DNA annealing, FRET fluorescence; P43351;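 active = every replicate showing at least 50% inhibition; inconclusive = mean inhibition at least 50% but not in every replicate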
# PglD inh = blocks C. jejuni PglD acetyltransferase activity | inhibition, % at 12.5 µM | purified PglD enzyme, DTNB colorimetric CoA detection | AID 602405 | 360,000 compounds, 0.098% hits; in the data active = inhibition above about 16%, passing the limit was not always enough; inconclusive = no clear call, values can overlap the other calls
# Yeast UUG start = modulators of start codon recognition fidelity in yeast; S. cerevisiae UUG-firefly luciferase reporter, luminescence/redox ratio; AID 602363; 350,000 tested, 0.13% active; activity score, % at 18.7 µM;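 active = replicate mean at a twofold rise or more, about +100% in these data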;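 also: firefly luciferase made from a UUG start codon reports start codon fidelity; reporter light over untreated wells divided by growth signal over untreated wells; some hits fall short of that in this replicate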
# INS-1E GSIS act = GLuc luminescence reporter in INS-1E cells, primary screen for activators of glucose-dependent secretion of insulin; 370,000 compounds, 0.61% hits; activation, % at 16.6 µM; INS-1E GLuc reporter insulin secretion, 2-3 h;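 active = lowest replicate activation of at least 40%, so every replicate reaches that level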;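 also: 0% = median of neutral control wells and 100% = median of IBMX positive control wells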
# CASP6 VEID inh = blocks human caspase-6 cleavage activity; P55212; purified caspase-6, Z-VEID-R110 cleavage fluorescence; inhibition, % at 12.5 µM; 350,000 compounds, 0.53% hits; AID 686996;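 active = mean inhibition across replicates at least about 35%, with every replicate also reaching that limit, limit read from the data; inconclusive = only one of the two criteria met; inactive = neither criterion met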;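 also: 0% = median of neutral control wells and 100% = no fluorescence left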
# PglD confirm = blocks Campylobacter jejuni PglD acetyltransferase activity; shares compounds with PglD inh; Purified C. jejuni PglD, DTNB absorbance 412 nm; inhibition, % at 20 µM; 320 tested, under 10 active;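 active = mean inhibition across replicates of at least 20% with every single replicate also at 20% or more; inconclusive = mean inhibition at least 20% but some replicate falls below 20%; inactive = mean inhibition under 20% and not all replicates reach it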;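 also: initial rate of CoA release by acetyl transfer from AcCoA to the UDP-4-amino sugar; 0% = median of neutral control wells and 100% = median of positive control wells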
# * = called active by the depositor; u = inconclusive; x = not tested or not shown.
SMILES	RAD54 inh	RAD52 anneal inh	PglD inh	Yeast UUG start	INS-1E GSIS act	CASP6 VEID inh	PglD confirm
COC(=O)c1cc(NC(=O)c2ccc(Cn3cc(Cl)cn3)o2)cc(C(=O)OC)c1	0	x	-6	-4	x	x	x
O=C(NC1CCCCC1)c1cccc(NC(=O)c2ccccc2Cl)c1	6	3	22*	-20	0	3	1
O=C(Nc1ccccc1C(=O)N1CCOCC1)C1CC(=O)N(c2ccc(F)cc2)C1 (configuration not stated)	-4	-11	-12	-8	12	1	x
O=C(Nc1ccccc1C(=O)N1CCOCC1)C1CC(=O)N(C2CCCC2)C1 (configuration not stated)	-8	x	33*	-20	x	x	-5
CN(C)c1ccc(N=Cc2cccn2C)cc1	9	15	4	-43	-9	1	x
COC(=O)c1ccc(CSc2nc3c(c(=O)n2-c2ccccc2)SCC3)o1	5	-8	-4	-5	-41	2	x
O=C(O)CC1(CC(=O)Nc2ccc3c(c2)C(=O)OC3)CCCCC1	12	-9	21*	16	29	-6	-3
O=C(O)CC1(CC(=O)Nc2ccc3ccccc3c2)CCCCC1	1	x	6	-12	x	x	x
COc1ccc(-c2cc([N+](=O)[O-])ccc2OCC(=O)N(C)CC(=O)Nc2ccc(C)cc2)cc1	-1	-12	4	-16	-25	-6	x
CCOC(=O)C1=C(C)N(c2ccccc2)C(=O)NC1c1cccc([N+](=O)[O-])c1 (configuration not stated)	-5	x	21*	-21	-12	x	-4
O=C(COc1ccc(S(=O)(=O)N2CCCCC2)cc1)N1CCCCCC1	-1	x	21*	21	x	x	-5
O=C(CSCCO)Nc1cccc(C(F)(F)F)c1	-15	x	23*	-22	x	x	-1
O=C(CSCCO)Nc1ccccc1	-6	x	-1	-20	x	x	x
O=C1c2ccc(Br)cc2C(=O)N1c1ccc(Cl)cn1	5	-1	-2	-1	-5	2	x
Cc1nnc(N2C(=O)c3ccc(Br)cc3C2=O)s1	1	0	22*	-4	-4	-3	2
COc1cccc(C(=O)NNC(=O)C(=O)Nc2cccc(Cl)c2C)c1	-9	0	22*	-16	3	1	10
Cc1noc(C)c1S(=O)(=O)N(C)C[C@H]1Oc2ccc(NS(=O)(=O)c3ccc(Cl)cc3)cc2C(=O)N([C@H](C)CO)C[C@H]1C	-9	3	-6	1	4	2	x
Cc1ccc(NC(=O)Nc2ccon2)cc1	1	-7	10	-14	20	4	x
CCc1ccc(/C=C2\SC(=S)N(CCCC(=O)Nc3cc(C)on3)C2=O)cc1	2	-24	21*	-11	31	-3	-2
COc1ccccc1CC(=O)N1CCN(S(=O)(=O)c2cccs2)CC1	-2	-3	2	-9	18	0	x
COc1ccccc1/C=C/C(=O)N1CCN(S(=O)(=O)c2cccs2)CC1	0	-9	32*	-16	-11	-1	-1
CCn1c(SCC(=O)Nc2ccc3c(c2)OCCO3)nnc1-c1ccccn1	-4	x	76*	-10	x	x	-4
O=C(NCc1cccnc1)C1CC(c2cccc(Br)c2)=NO1 (configuration not stated)	3	-21	23*	-21	2	-3	-5
O=C(Nc1ccc(C(=O)N2CCOCC2)cc1)Nc1cccc(Cl)c1	7	x	25*	16	-11	x	3
Nc1cc(Nc2ccccc2)c2nonc2c1[N+](=O)[O-]	-4	-66	-8	-12	7	0	x
CC(C)(C)NC(=O)COC(=O)c1ccccc1Nc1ccc(SC(F)F)cc1	-6	x	20*	-4	-34	x	u
CNS(=O)(=O)c1cc(S(=O)(=O)NC)c2cccc3c2c1NC3=O	-13	-11	77*	-11	14	18	1
CCOc1ccc(N2CC(C(=O)NCCc3ccc(S(N)(=O)=O)cc3)CC2=O)cc1 (configuration not stated)	4	-7	31*	-14	-3	1	u
Cc1cccc(NS(=O)(=O)c2ccc(C(=O)NCCCN3CCOCC3)cc2)c1C	5	-14	-4	-6	x	-6	x

# Compounds from the list above with bromine:
SMILES	RAD54 inh	RAD52 anneal inh	PglD inh	Yeast UUG start	INS-1E GSIS act	CASP6 VEID inh	PglD confirm
O=C1c2ccc(Br)cc2C(=O)N1c1ccc(Cl)cn1	5	-1	-2	-1	-5	2	x
Cc1nnc(N2C(=O)c3ccc(Br)cc3C2=O)s1	1	0	22*	-4	-4	-3	2
O=C(NCc1cccnc1)C1CC(c2cccc(Br)c2)=NO1 (configuration not stated)	3	-21	23*	-21	2	-3	-5

# High-throughput results deposited in PubChem BioAssay by Broad Institute.
